Assay results: patent publication US11845808B2, “Peptide inhibitors of interleukin-23 receptor and their use to treat inflammatory diseases” (Janssen Biotech, Inc., priority 2020, dated 2023)

What was measured:
IL-23R = biological target: T1, IL-23R (Homo sapiens, UniProt Q5VWK5); test: DB cells IL23R pSTAT3 cell assay (pStat3 HTRF); assay type: cell-based; details: IL-23R-expressing DB cells, IL-23 0.5 nM, 30 minutes
T1 construct: examines the levels of pSTAT3 in IL-23R-expressing DB cells when stimulated with IL-23; host or cells: DB cells
T1 sequence (Q5VWK5 24-629): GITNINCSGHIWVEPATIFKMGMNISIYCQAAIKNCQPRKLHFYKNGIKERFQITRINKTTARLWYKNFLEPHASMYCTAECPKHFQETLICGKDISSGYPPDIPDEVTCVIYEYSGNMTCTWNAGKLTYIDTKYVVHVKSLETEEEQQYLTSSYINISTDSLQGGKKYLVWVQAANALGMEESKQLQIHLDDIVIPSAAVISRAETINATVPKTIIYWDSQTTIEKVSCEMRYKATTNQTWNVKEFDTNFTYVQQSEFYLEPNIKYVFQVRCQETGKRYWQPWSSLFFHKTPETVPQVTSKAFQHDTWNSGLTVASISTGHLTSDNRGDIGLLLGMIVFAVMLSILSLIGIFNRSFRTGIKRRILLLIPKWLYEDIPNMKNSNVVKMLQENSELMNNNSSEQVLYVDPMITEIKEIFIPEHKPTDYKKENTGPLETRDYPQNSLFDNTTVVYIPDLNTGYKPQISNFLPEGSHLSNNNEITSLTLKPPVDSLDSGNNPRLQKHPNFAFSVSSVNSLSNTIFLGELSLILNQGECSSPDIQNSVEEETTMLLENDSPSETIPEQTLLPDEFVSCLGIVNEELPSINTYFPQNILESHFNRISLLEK

[1] = biological target: IL-23 induced IFNγ in natural killer (NK) cells (Homo sapiens, UniProt Q5VWK5); test: NK cell based assay (IL-23/IL-18 induced IFNγ); details: IL-23 at EC50 to EC75 and IL-18 10 ng/mL, IFNγ in supernatant after 20 to 24 hours
Description: Example 3: NK Cell Based Assay

[2] = Stability in simulated intestinal fluid (SIF); assay type: in vitro ADME; details: 100 fold dilution of standard SIF concentration, 37° C., 20 μM
Method in brief: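 Peptides at 20 μM final were incubated at 37 °C in SIF (potassium phosphate with pancreatin, pH 6.8), and reactions were quenched with acetonitrile/1% formic acid at time points from 0 min to 24 h. Percent remaining relative to time 0 was determined by LC-MS/MS against an internal standard, and half-life came from a first-order decay fit.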

Stability in rat plasma = assay type: in vitro ADME; details: SD rat plasma, 37° C., 20 μM

| Substance | IC50 (IL-23R) | IC50 [1] | SIF t½ [2] | t½: Rat Plasma EDTA (Stability in rat plasma) |
| --- | --- | --- | --- | --- |
| Ac-[Pen]-N-T-[W(7-Me)]-[Lys(Ac)]-[Pen]-Phe[4-(2-aminoethoxy)]-[2-Nal]-[THP]-E-N-[3Pal]-[Sarc]-NH2 [Peptide 104] | 0.022 nM | 0.0192 nM | >24.0 h | >24.0 h |
| Ac-[Pen]-N-T-[W(7-Ph)]-[Lys(Ac)]-[Pen]-Phe[4-(2-aceylaminoethoxy)]-[2-Nal]-[THP]-[Lys(Ac)]-N-[3Pal]-[Sarc]-NH2 [Peptide 137] | 0.06 nM | 0.0177 nM | 22.7 h | >24.0 h |
| Ac-[Pen]-N-T-[W(7-Ph)]-[Lys(Ac)]-[Pen]-Phe[4-(2-aminoethoxy)]-[2-Nal]-[THP]-E-N-[3Pal]-[Sarc]-NH2 [Peptide 106] | 0.044 nM | 0.0325 nM | >23.0 h | >24.0 h |
